Reference: patent US20100196376A1, “METHOD FOR REDUCING ALLERGEN-INDUCED AIRWAY HYPERRESPONSIVENESS” (National Jewish Health, priority 2001, published 2010)

Tests used:
Type in all cases: in vivo, mouse (BALB/c)
[1] = test system: ovalbumin-sensitized and challenged mice (tissue infiltrating eosinophils); test: Tissue infiltrating eosinophils, MBP immunoperoxidase and morphometric analysis of lung sections; conditions: i.p. 2 h prior to each allergen challenge; CGRP 20 μg/kg, CGRP fragment 8-37 100 μg/kg (FIG. 3D)
Protocol: For histology and immunohistochemistry, the lungs of the mice were inflated and fixed with 4% paraformaldehyde in PBS for 24 h at 4° C. followed by processing into paraffin. Five μm-thick sections were cut from the paraffin blocks, deparaffinized and stained with hematoxylin and eosin for routine histology. Mucus-containing goblet cells were visualized by staining with Periodic Acid Shiff (PAS)-alcian blue.
The pan neuronal marker PGP9.5, CGRP and tissue eosinophils were detected by immunoperoxidase. Unless otherwise stated, all incubations were carried out at room temperature. All washes were performed with TBS (50 mM TRIS-buffered saline pH 7.6) 3 times for 5 min. […]
For tissue eosinophils, the sections were pretreated for 5 min with 0.01% trypsin in TBS to retrieve antigens. […] CGRP was detected with a polyclonal rabbit anti-CGRP antibody (Biogenesis) diluted 1:200. […]
The data of immunohistochemistry were quantitatively analyzed (morphometric analysis) on a G-3 Macintosh computer using the National Institutes of Health (NIH) Scion Image analysis software. […]
The number of tissue infiltrating eosinophils was determined by counting all MBP-positive cells present in the airway wall including the adventitia. When eosinophils were present in tissue areas connecting blood vessels to adjacent airways only 50% of these cells were counted for these airways. […]

[2] = test system: ovalbumin-sensitized and challenged mice (BAL eosinophils); test: Bronchoalveolar lavage (BAL) differential cell counts, ovalbumin-sensitized and challenged mice; conditions: i.p. 2 h prior to each allergen challenge; CGRP 20 μg/kg, CGRP fragment 8-37 100 μg/kg (FIG. 3C)
Protocol: (§1) Mice (8/group/experiment) were sensitized by intraperitoneal injection of 20 μg of ovalbumin (Grade V, Sigma) emulsified in 2.25 mg alum (Alum® Inject; Pierce, Rockford, Ill.) in a total volume of 100 μl on days 0 and 14. On days 28, 29 and 30, mice were challenged via the airways by a 20-minute inhalation exposure to aerosols of ovalbumin (1% in saline) obtained from a DeVilbiss ultrasonic nebulizer (particle size 1-5 μm). Age-matched, control animal groups (8/group/experiment) consisted of mice injected with alum alone (non-sensitized) and exposed either to aerosols of saline or to aerosolized ovalbumin, and mice sensitized to ovalbumin but subsequently exposed to aerosols of saline.
Following assessment of airway function, the lungs were lavaged once with 1 ml of sterile Hank's balanced salt solution (HBSS) pre-warmed at 37° C. The recovered BAL fluids were placed in Eppendorf tubes and were centrifuged at 4° C. for 5 min at 1,500 rpm. The obtained cell pellets were resuspended in 200 μl of sterile phosphate-buffered saline (PBS) and total cell numbers were determined from counting of crystal violet-stained aliquots using a hemacytometer. Differential cell counts were determined from cytospin preparations stained with Leukostat (Fisher Diagnostics, Pittsburgh, Pa.). At least 200 cells were counted from each slide in a blinded fashion.

[3] = test system: ovalbumin-sensitized and challenged mice (airway hyperresponsiveness to methacholine); test: Airway function: change in lung resistance (RL) and dynamic compliance (Cdyn) after aerosolized methacholine, ovalbumin-sensitized and challenged mice
Protocol: as §1
Briefly, mice were sensitized and challenged to ovalbumin as described in Example 1. Airway function was assessed in vivo in anesthetized, mechanically ventilated mice as previously described (see, for example, Takeda et al., 1997, J. Exp. Med. 186, 449-454) by measuring changes in lung resistance (RL) and dynamic compliance (Cdyn) in response to intratracheal challenge with aerosolized methacholine at doses of 1.56, 3.125, 6.25 and 12.5 mg/ml in saline. Baseline values were recorded from data obtained after intra-tracheal challenge with aerosolized saline. The data are presented in percent of change from baseline RL, and Cdyn.

calcitonin gene-related peptide [CGRP]
Numbers of tissue infiltrating eosinophils [1]: no significant effect
Numbers of BAL eosinophils [2]: no significant effect
AHR in sensitized mice ([3]; administration after the period of allergen challenge, CGRP i.p. at 2 h prior to assessment of airway function (FIGS. 4A, 4B)): abolished
AHR in sensitized and challenged mice, aerosolized CGRP ([3]; exposed for 15 minutes to aerosolized CGRP (10^−6M) at 2 h before assessment of airway function (FIGS. 5A, 5B)): abolished
Extent / development of AHR ([3]; i.p. 2 h prior to each allergen challenge, CGRP 20 μg/kg, CGRP fragment 8-37 100 μg/kg (FIGS. 3A, 3B)): completely suppressed
